Source: EP4588921A1, “FREE BASE CRYSTAL FORM OF POLYCYCLIC COMPOUND OF NITROGEN-CONTAINING HETEROCYCLE, AND PREPARATION METHOD THEREFOR” (Jiangsu Hansoh Pharmaceutical Group Co., Ltd., priority 2022, dated 2024)

Chains of the proteins cited; added tags and fusions are not shown.
UniProt O43614, whole entry: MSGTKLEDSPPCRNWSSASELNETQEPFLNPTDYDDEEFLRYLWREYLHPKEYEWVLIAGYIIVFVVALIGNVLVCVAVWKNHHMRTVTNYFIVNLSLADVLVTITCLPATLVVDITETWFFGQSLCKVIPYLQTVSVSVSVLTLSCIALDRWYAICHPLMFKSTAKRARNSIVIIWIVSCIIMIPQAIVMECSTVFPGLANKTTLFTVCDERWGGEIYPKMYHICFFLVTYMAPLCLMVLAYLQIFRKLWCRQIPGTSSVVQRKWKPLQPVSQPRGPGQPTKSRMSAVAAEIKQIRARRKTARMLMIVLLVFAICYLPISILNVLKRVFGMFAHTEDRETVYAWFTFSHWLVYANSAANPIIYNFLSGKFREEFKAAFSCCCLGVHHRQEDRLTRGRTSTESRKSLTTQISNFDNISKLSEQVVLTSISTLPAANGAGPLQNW
UniProt O43613, whole entry: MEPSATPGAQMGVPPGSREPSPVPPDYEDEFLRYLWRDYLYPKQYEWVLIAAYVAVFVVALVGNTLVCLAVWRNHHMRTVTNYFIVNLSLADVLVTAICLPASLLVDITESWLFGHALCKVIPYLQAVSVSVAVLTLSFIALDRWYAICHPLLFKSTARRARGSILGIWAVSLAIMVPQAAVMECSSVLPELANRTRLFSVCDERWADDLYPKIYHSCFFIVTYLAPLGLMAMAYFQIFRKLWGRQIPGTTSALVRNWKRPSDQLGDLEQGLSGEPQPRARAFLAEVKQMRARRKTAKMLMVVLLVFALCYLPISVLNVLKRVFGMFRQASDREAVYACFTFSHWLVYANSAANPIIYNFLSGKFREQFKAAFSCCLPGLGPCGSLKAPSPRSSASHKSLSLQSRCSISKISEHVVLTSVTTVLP

Experiments:
[1] = target: T1, human OX2R (Homo sapiens, UniProt O43614); assay: Calcium current (FLIPR) in cells stably expressing OX2 receptor; format: cell-based
T1 construct: expressed in transfected cells; host or cells: CHO-K1
From the text: (§1) Test example 1. Determination of the effect of the compounds of the present invention on calcium current in cells stably expressing OX1 and OX2 receptors 1. Experimental objective: The inhibitory effect of the compounds on calcium current activity in CHO-K1/human OX1R and CHO-K1/human OX2R cells was detected. 2. Experimental instruments and reagents 2.1 Instruments: • 384-well cell culture plate (Corning; 3764); • Plate reader FLIPR Tetra (Molecular Device). 2.2 Reagents: • DMEM, high glucose (Gibco: 12100); • Fetal bovine serum (Biosera: FB-1058/500); • P/S (Biosera: XC-A4122); • 5X Matrigel (Corning: 354230); • HBSS (Sigma: H1387); • HEPES (Invitrogen: 15630080); • Fluo-8 AM (AAT Bioquest: 21080); • Probenecid (Sigma: P8761); • Pluronic F-127 (Sigma: P2443-250G); • 1000X Fluo-8 AM (2 mM): Fluo-8 AM was dissolved in DMSO, the mixture was shaken for 1-2 min, sub-packaged and stored at -20°C; • Complete culture medium: DMEM + 10% FBS + 1X P/S; • Cell seeding medium: DMEM + 10% FBS + 1X PS; • Experimental buffer: 1X HBSS + 20 mM HEPES +1 mM Probenecid + 0.025% Pluronic F-127; • 1X Matrigel: 5X Matrigel was diluted with DMEM; • Cell strain: CHO-K1/human OX1R and CHO-K1/human OX2R cell lines. 3. […] The IC50 of the positive compounds and test compounds was determined. […] Experimental data processing method: FLIPR Tetra was used to read and collect the fluorescence signal value (RFU). […]

[2] = target: T2, human OX1R (Homo sapiens, UniProt O43613); assay: Calcium current (FLIPR) in cells stably expressing OX1 receptor; format: cell-based
T2 construct: expressed in transfected cells; host or cells: CHO-K1
From the text: as §1

pIC50 [1]: 7.57
pIC50 [2]: 6.14
SMILES: Cc1cc(C)nc(N2CC3CN(C(=O)c4c(F)cccc4-n4nccn4)CC3C2)n1 (centres unmarked) [Seltorexant, reference compound]

pIC50: −log10 of the molar value.
